Legend:
Format in all cases: cell-based
[1] = target: T1, rNaV1.4 (Rattus norvegicus, UniProt P15390); assay: Two-electrode voltage clamp, Nav1.4 in Xenopus laevis oocytes; settings: ex vivo, Hill fit, n ≥ 3, highest tested concentration 50 μM
T1 construct: expressed in transfected cells; host or cells: Xenopus laevis oocytes (cRNA injection)

By UniProt entry, the sequences of proteins in these tests, tags left out.
UniProt P15390, whole entry: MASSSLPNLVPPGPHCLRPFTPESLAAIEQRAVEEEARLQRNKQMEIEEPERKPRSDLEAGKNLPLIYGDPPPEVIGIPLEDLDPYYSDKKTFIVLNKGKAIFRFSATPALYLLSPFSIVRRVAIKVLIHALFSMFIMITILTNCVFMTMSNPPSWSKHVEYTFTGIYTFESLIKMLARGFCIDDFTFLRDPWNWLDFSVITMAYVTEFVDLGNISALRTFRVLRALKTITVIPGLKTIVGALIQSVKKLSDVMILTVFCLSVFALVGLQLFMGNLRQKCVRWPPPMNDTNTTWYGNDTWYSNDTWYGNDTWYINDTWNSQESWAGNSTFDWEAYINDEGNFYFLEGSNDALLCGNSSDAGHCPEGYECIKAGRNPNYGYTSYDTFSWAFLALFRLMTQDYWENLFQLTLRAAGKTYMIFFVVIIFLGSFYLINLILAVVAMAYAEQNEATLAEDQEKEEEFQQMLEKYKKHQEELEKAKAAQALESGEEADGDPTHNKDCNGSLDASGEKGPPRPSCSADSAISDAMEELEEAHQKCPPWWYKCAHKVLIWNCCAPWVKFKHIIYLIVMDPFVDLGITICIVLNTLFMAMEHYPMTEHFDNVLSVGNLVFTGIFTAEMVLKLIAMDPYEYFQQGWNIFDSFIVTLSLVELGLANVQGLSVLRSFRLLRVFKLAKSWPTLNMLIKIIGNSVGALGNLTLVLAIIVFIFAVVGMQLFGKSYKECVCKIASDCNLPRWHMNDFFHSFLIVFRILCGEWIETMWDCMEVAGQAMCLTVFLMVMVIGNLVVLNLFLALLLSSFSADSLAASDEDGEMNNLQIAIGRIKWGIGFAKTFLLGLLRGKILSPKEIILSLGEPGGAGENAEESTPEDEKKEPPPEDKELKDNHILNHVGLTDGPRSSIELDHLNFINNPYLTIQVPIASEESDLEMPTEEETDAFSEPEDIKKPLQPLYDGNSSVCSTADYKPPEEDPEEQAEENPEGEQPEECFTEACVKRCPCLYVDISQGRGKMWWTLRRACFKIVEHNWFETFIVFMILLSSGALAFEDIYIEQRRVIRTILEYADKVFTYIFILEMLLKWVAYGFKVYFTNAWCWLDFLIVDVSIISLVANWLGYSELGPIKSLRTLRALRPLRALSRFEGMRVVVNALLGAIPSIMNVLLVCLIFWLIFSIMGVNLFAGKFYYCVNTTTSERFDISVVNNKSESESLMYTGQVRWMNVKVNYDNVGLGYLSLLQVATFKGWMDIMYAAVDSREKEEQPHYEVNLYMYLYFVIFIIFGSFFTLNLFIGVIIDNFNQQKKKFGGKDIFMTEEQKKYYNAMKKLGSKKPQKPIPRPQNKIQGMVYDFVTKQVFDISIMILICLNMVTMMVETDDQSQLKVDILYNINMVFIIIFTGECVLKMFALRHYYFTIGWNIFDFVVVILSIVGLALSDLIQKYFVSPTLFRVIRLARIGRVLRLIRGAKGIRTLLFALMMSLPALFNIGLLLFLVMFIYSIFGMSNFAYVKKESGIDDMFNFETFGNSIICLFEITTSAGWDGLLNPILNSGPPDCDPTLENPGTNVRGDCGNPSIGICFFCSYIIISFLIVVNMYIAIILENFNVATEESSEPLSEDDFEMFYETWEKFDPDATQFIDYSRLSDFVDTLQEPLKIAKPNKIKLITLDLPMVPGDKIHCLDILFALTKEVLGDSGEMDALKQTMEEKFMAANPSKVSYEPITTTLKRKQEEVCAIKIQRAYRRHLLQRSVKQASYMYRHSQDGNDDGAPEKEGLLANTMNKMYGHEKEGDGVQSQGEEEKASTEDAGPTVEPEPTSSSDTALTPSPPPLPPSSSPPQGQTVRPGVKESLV

[2] = tested on: Kv1.4; assay: Ion channel panel, Kv1.4; set-up: key: “+” means tested and produced effect; “–“ means tested but no effect; settings: S12A at 5 μM; Xenopus oocytes, n ≥ 3
Source text: (§1) To assess the concentration–response relationships, data were fitted with the Hill equation: y = 100/[1 + (EC50/[toxin])^ h ], where y is the amplitude of the toxin-induced effect (y = I 30 ms/I peak where I 30 ms is the current value at 30 ms in the presence of toxin and I peak is the peak current amplitude in control conditions), EC50 is the toxin concentration at half-maximal efficacy, [toxin] is the toxin concentration, and h is the Hill coefficient. Potassium and calcium currents were evoked by a 500 ms depolarization to the voltage corresponding to the maximal activation of the channels in control conditions from a holding potential of −90 mV. Elicited currents were sampled at 1 kHz and filtered at 0.5 kHz. […] ASIC1a currents were measured in ND96 solutions at a pH of 7.4 and 4.5, at a holding potential of −70 mV during 400 s, and the data were filtered at 20 Hz. EnaC currents were measured by clamping oocytes at a holding potential of −60 mV and perfusing with low- (1 mM) and high- (96 mM) sodium ND96. Opioid currents were measured by clamping the potential to −70 mV and changing the perfusion solution from ND96 to high-potassium (HK) solution composed of 96 mM KCl, 2 mM NaCl, 1 mM MgCl2, 1.8 mM CaCl2, and 5 mM HEPES, with a final pH of 7.5. […] TRPV1 and TRPA1 currents were continuously monitored in a perfusing ND96 solution, following a protocol at −90 mV for 400 s. […]

[3] = tested on: α7; assay: Ion channel panel, nAChR α7; set-up: key: “+” means tested and produced effect; “–“ means tested but no effect; settings: S12A at 5 μM, oocytes at −70 mV, 5 min incubation, n ≥ 3
Source text: as §1

[4] = tested on: Kv4.3; assay: Ion channel panel, Kv4.3; set-up: key: “+” means tested and produced effect; “–“ means tested but no effect; settings: S12A at 5 μM; Xenopus oocytes, n ≥ 3
Source text: as §1

CC[C@H](C)[C@@H]1NC(=O)[C@@H](NC(=O)CN)CSSC[C@@H]2NC(=O)[C@@H]3CSSC[C@@H](C(=O)N[C@@H](CC(N)=O)C(=O)N4C[C@H](O)C[C@H]4C(=O)N4C[C@H](O)C[C@H]4C(=O)N[C@@H](CC(N)=O)C(=O)N[C@@H](CCC(N)=O)C(=O)O)NC(=O)[C@H](CCCCN)NC(=O)[C@H](Cc4ccccc4)NC(=O)[C@H](CC(N)=O)NC(=O)[C@H](Cc4c[nH]c5ccccc45)NC(=O)CNC(=O)[C@H](CSSC[C@H](NC(=O)[C@H](Cc4ccccc4)NC(=O)[C@H](CO)NC(=O)CNC(=O)[C@H]([C@@H](C)O)NC(=O)[C@H](C)NC1=O)C(=O)N[C@@H]([C@@H](C)O)C(=O)N[C@@H](CC(C)C)C(=O)N[C@@H](C)C(=O)N[C@@H](CCCCN)C(=O)NCC(=O)N3)NC(=O)[C@H](CC(N)=O)NC(=O)[C@H](CCCCN)NC(=O)[C@H]([C@@H](C)O)NC2=O [Peptide S12A]
EC50 Nav1.4 [1]: no detectable activity | effect on Kv1.4 [2]: – | effect on α7 [3]: – | effect on Kv4.3 [4]: –

From publication PMC12836348, “Alanine Mutagenesis Identifies Specific Amino Acids of Nemertide Alpha‑1 Activity and Its Binding to Target Receptors” (Journal of Natural Products, 2025)
